Molecules are shown by their SMILES. The list shows a part of the results, in another mix than the full data. Some results for these compounds are left out of this collection, so the calls shown say nothing about other tests. Calls of active or inactive are those of the source. No stated cut-off is given here; in the data, active means inhibition above about 13%; inactive means the rest.

By UniProt entry, the sequences of proteins in these tests, tags left out.
UniProt Q9UBB5, whole entry: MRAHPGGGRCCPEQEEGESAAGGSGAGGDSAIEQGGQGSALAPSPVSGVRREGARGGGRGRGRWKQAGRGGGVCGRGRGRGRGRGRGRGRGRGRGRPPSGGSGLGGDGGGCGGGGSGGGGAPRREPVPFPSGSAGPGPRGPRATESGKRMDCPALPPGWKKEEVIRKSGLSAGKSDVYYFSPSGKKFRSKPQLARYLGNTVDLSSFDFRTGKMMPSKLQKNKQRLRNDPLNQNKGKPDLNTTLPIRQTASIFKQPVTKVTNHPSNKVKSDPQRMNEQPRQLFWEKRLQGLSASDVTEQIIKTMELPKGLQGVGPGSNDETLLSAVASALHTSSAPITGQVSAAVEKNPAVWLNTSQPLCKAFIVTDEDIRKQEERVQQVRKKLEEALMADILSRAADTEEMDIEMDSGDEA

The target in the assay is Methyl-CpG-binding domain protein 2 (Homo sapiens) (UniProt Q9UBB5). Description: MBD2-DBD methyl-oligonucleotide interaction blockers – biochemical, TR-FRET, DNA-binding domain, human, primary screen (AID 686964). The following applies: MBD2 binding to methylated oligonucleotide, at 4.4 µM, hits give high values.
Take `COc1ccc(Cl)cc1C(=O)NCC1(N(C)C)CCCCC1`: the inhibition is inactive: 2.33%.

With `COc1cccc(C(=O)NCC2(N3CCCCC3)CCCCC2)c1`, the inhibition was inactive: -0.85%.

Turning to `O=C(NCC1(N2CCCCC2)CCCCC1)c1cccc(Cl)c1`, the inhibition was inactive: -0.43%.

With `CN(C)C1(CNC(=O)c2ccc(Br)cc2)CCCCC1`, the inhibition is inactive: 0.83%.

In the case of `COc1cc(C(=O)NCC2(N(C)C)CCCCC2)c([N+](=O)[O-])cc1OC`, the inhibition is inactive: -1.16%.

For the compound `COc1ccc(Br)c(C(=O)NCC2(N3CCCCC3)CCCCC2)c1`, the inhibition was inactive: 4.76%.

`C=C(C)C#CC(O)(C(=O)OC1CCN(C)CC1)c1ccccc1` (stereo unspecified): the inhibition is inactive: 6.03%.

Consider `CN(C)c1cccc(C(=O)NCC2(N(C)C)CCCCC2)c1`, for which the inhibition was inactive: -3.05%.

For the compound `O=C(OCCN1CCCC1)C(O)(c1ccccc1)c1ccccc1`, the inhibition is inactive: 0.91%.

For the compound `CC(C)Oc1ccc(C(=O)NCC2(N(C)C)CCCCC2)cc1`, the inhibition was inactive: 2.9%.

For `O=C(OC1CN2CCC1CC2)C(CO)(c1ccccc1)c1ccccc1` (stereo unspecified), the inhibition is inactive: -5.34%.

Take `CC(C)N1C(=O)CC2(CCN(CCOC(=O)C(O)(c3ccccc3)c3ccccc3)CC2)C1=O`: the inhibition was inactive: 2.78%.

In the case of `COc1cc(SC)ccc1C(=O)NCC1(N(C)C)CCCCC1`, the inhibition was inactive: 1.69%.

On to `CCN(CC)CC(C)C(C)OC(=O)C(O)(c1ccccc1)c1ccccc1` (stereo unspecified), for which the inhibition is inactive: 3.2%.

Regarding `Cc1ccc(C(=O)NCC2(N3CCCCC3)CCCCC2)cc1`, the inhibition is inactive: 3.82%.

Consider `O=C(NCC1(N2CCCCC2)CCCCC1)c1cc([N+](=O)[O-])ccc1Cl`, for which the inhibition was inactive: -0.21%.

With `CN1[C@@H]2CC[C@H]1CC(OC(=O)C(O)(c1ccccc1)c1ccccc1)C2` (stereo partly specified), the inhibition was inactive: 1.85%.

As to `O=C(NCC1(N2CCCCC2)CCCCC1)c1cc(F)c(F)cc1Cl`, the inhibition is inactive: 0.36%.

For the compound `C=CCN1CCN(CCOC(=O)C(O)(c2ccccc2)c2ccccc2)CC1`, the inhibition was inactive: -5.4%.

Take `O=C(NCC1(N2CCCCC2)CCCCC1)c1cccc(Br)c1`: the inhibition was inactive: 3.86%.

With `Cc1cc(C(=O)NCC2(N3CCCCC3)CCCCC2)ccc1[N+](=O)[O-]`, the inhibition is inactive: 0.94%.

Turning to `CCN1CCCC(OC(=O)C2(O)c3ccccc3C=Cc3ccccc32)C1` (stereo unspecified), the inhibition was inactive: 0.38%.

Regarding `COc1ccc(C(=O)NCC2(N(C)C)CCCCC2)cc1`, the inhibition is inactive: -2.96%.

Turning to `CN(C)C1CCCC1OC(=O)C(O)(c1ccccc1)c1ccccc1` (stereo unspecified), the inhibition is inactive: 3.43%.

Take `CN(C)c1ccc(C(=O)NCC2(N(C)C)CCCCC2)cc1`: the inhibition is inactive: 4.9%.

In the case of `Cc1ccccc1C(=O)NCC1(N2CCCCC2)CCCCC1`, the inhibition was inactive: -1.94%.

As a reminder, the inhibition is the change of the read-out against control, counted positive when it falls.

Source of the values: PubChem BioAssay AID686964 (The Scripps Research Institute Molecular Screening Center, 2013).
